Measured affinities in a library of Ab-91 heavy chain variants

Source: Engelhart et al. 2022 (doi:10.1038/s41597-022-01779-4), MIT Lincoln Laboratory and A-Alpha Bio; data file from the FLAb repository.

The target is the same throughout: PDVDLGDISGINAS, from the HR2 region of SARS-CoV-2 spike.

Parent: Ab-91, a human scFv built as VL, three GGGGS repeats, VH. Only the CDRs of the heavy chain vary.
VL: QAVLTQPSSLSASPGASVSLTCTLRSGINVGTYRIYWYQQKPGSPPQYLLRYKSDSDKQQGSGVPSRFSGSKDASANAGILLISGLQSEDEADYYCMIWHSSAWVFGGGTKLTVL
VH: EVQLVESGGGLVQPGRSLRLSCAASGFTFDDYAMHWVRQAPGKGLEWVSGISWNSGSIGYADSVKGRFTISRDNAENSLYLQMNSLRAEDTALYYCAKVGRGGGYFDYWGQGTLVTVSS

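Phage display of a naive human antibody library on the peptide gave the parent. AAYL51 was designed without a model: most single CDR substitutions and a random sample of double and triple ones. AlphaSeq pools MATa yeast showing the antibodies with MATalpha yeast showing the peptide. Mating (16 h, 30 °C) was followed by selection of diploids and sequencing of their barcodes. The ratio of observed to expected reads was calibrated, replicate by replicate, on BCL2-family standards whose Kd was known from biolayer interferometry. The assay was run in three technical replicates.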

Changes read parent residue, position, new residue, counted from the first residue of the VH shown. Numbers give log10(Kd / nM), so 0 is 1 nM and 3 is 1 µM. Smaller is tighter. Replicates are averaged; those with no signal do not enter the mean. A pair that was not seen in that replicate is written "nd"; this usually means weak binding, but a binder can also be missed. Order: sorted from the lowest average up, undetected variants last. Background: pairings of library AAYL51 with three empty control strains gave a value in 21% of cases (median 4.54, 5th percentile 3.26). Values in that range, when seen in few replicates, are hard to tell from nonspecific mating. The control count says in how many pairings with the empty strains this scFv gave a signal, with their mean in brackets. Parent in this assay: reference entry 1.86, copy in this library 0.88.

{"changes": "T28Q/D31S/Y108C", "log10 Kd (nM) by replicate": "0.47 / 0.49 / -0.34", "mean log10 Kd (nM)": "0.21", "signal with controls": "2/9 (5.13)"}
{"changes": "T28V/K65H/G104C", "log10 Kd (nM) by replicate": "0.83 / 0.80 / 0.18", "mean log10 Kd (nM)": "0.60", "signal with controls": "3/9 (4.82)"}
{"changes": "K65D/V99A", "log10 Kd (nM) by replicate": "4.10 / nd / nd", "mean log10 Kd (nM)": "4.10", "signal with controls": "3/9 (4.24)"}
{"changes": "G26M/I51A/G59N", "log10 Kd (nM) by replicate": "4.83 / 5.14 / 3.82", "mean log10 Kd (nM)": "4.59", "signal with controls": "5/9 (4.84)"}
{"changes": "H35S/Y60T/F106N", "log10 Kd (nM) by replicate": "4.00 / 5.16 / 4.76", "mean log10 Kd (nM)": "4.64", "signal with controls": "4/9 (4.52)"}
{"changes": "G26W/D31S/M34E", "log10 Kd (nM) by replicate": "6.04 / 4.08 / nd", "mean log10 Kd (nM)": "5.06", "signal with controls": "4/9 (4.11)"}
{"changes": "A33N/S63W/K65C", "log10 Kd (nM) by replicate": "6.05 / 5.44 / 4.73", "mean log10 Kd (nM)": "5.41", "signal with controls": "2/9 (4.35)"}
{"changes": "D30E/D31S/H35Q", "log10 Kd (nM) by replicate": "nd / nd / nd", "mean log10 Kd (nM)": "nd", "signal with controls": "0/9"}
{"changes": "D30C/G59W/A61C", "log10 Kd (nM) by replicate": "nd / nd / nd", "mean log10 Kd (nM)": "nd", "signal with controls": "0/9"}
{"changes": "A33G/W53R/V64N", "log10 Kd (nM) by replicate": "nd / nd / nd", "mean log10 Kd (nM)": "nd", "signal with controls": "1/9 (4.31)"}
{"changes": "G59V/A61K/Y105K", "log10 Kd (nM) by replicate": "nd / nd / nd", "mean log10 Kd (nM)": "nd", "signal with controls": "0/9"}
{"changes": "D30T/G50Q", "log10 Kd (nM) by replicate": "nd / nd / nd", "mean log10 Kd (nM)": "nd", "signal with controls": "2/9 (3.98)"}
{"changes": "T28G/F29R/S57D", "log10 Kd (nM) by replicate": "nd / nd / nd", "mean log10 Kd (nM)": "nd", "signal with controls": "2/9 (4.04)"}
{"changes": "S55R/G100N/G103E", "log10 Kd (nM) by replicate": "nd / nd / nd", "mean log10 Kd (nM)": "nd", "signal with controls": "1/9 (3.65)"}
{"changes": "F27K/T28H/G50N", "log10 Kd (nM) by replicate": "nd / nd / nd", "mean log10 Kd (nM)": "nd", "signal with controls": "0/9"}
{"changes": "G56A/G59F/Y105P", "log10 Kd (nM) by replicate": "nd / nd / nd", "mean log10 Kd (nM)": "nd", "signal with controls": "2/9 (3.13)"}
{"changes": "W53Y/S57M/V64T", "log10 Kd (nM) by replicate": "nd / nd / nd", "mean log10 Kd (nM)": "nd", "signal with controls": "2/9 (3.12)"}
{"changes": "F29I/S55K/S57G", "log10 Kd (nM) by replicate": "nd / nd / nd", "mean log10 Kd (nM)": "nd", "signal with controls": "0/9"}

The opening 3 entries, copied out:

{"changes": "T28Q/D31S/Y108C", "log10 Kd (nM) by replicate": "0.47 / 0.49 / -0.34", "mean log10 Kd (nM)": "0.21", "signal with controls": "2/9 (5.13)"}
{"changes": "T28V/K65H/G104C", "log10 Kd (nM) by replicate": "0.83 / 0.80 / 0.18", "mean log10 Kd (nM)": "0.60", "signal with controls": "3/9 (4.82)"}
{"changes": "K65D/V99A", "log10 Kd (nM) by replicate": "4.10 / nd / nd", "mean log10 Kd (nM)": "4.10", "signal with controls": "3/9 (4.24)"}